The source of these data is PubChem BioAssay AID686940 (The Scripps Research Institute Molecular Screening Center, 2013).

Amino acid sequences for entries named in this document (tags omitted). A change or cut given only in a name is not applied to a line headed by its entry.
UniProt P24468: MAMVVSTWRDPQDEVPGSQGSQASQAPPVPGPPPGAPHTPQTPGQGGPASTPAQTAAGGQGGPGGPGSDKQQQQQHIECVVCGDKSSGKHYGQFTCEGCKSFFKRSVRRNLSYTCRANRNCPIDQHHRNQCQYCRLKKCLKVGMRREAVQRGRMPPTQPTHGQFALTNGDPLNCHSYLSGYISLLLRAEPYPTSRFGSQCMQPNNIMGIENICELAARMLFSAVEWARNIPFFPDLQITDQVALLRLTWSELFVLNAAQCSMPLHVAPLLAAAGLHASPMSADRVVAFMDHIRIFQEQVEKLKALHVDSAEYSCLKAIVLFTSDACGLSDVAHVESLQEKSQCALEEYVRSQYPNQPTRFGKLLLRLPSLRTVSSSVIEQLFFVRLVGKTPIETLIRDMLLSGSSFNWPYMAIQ

This is a selection; strong and weak results do not stand in their true shares. The source made the active and inactive calls.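 Rule for the calls: active = inhibition above a per-plate cutoff, mean inhibition of test wells between control levels plus 3 SD (cut at about 38% in these data); inactive = the rest.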

The term inhibition denotes the change of the read-out against control, counted positive when it falls.

The assay concerns the target COUP transcription factor 2 (Homo sapiens) (UniProt P24468). As to the kind of experiment: COUP-TFII reporter suppression in human cells – cell-based, luciferase reporter, HEK293T, luminescence, primary screen (AID 686940).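 Note: cells cotransfected with COUP-TFII expression vector driving the NGFI-A reporter; 0% = median of COUP-TF2 test wells and 100% = reporter-only cells.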 The note with it: HEK293T NGFI-A luciferase reporter, at 8.6 µM, stronger effect = higher value.
In the case of `O=C(NC1CCS(=O)(=O)C1)NP(=S)(Oc1ccccc1)Oc1ccccc1` (stereo unspecified), the inhibition was inactive: -9.39%.

On to `O=P1(N(CCCl)CCCl)OCCC2CCCCN21` (stereo unspecified), for which the inhibition is inactive: -4.65%.

In the case of `C[C@@H]1C=CCP(=O)(Oc2ccccc2)O1` (stereo partly specified), the inhibition is inactive: 10.5%.

For the compound `C[C@H]1OP(=O)(Oc2ccccc2)C[C@@H]2O[C@@H]21` (stereo partly specified), the inhibition was inactive: 8.51%.

On to `Cc1ccccc1CN(C)C(=O)COC(=O)C(O)(c1ccccc1)c1ccccc1`, for which the inhibition is inactive: -9.12%.

For `COC(=O)C1(C)COP(=O)(NCc2ccccc2)OC1` (stereo unspecified), the inhibition is inactive: 2.31%.

On to `N#C/C(=C\c1ccc(N(CCBr)CCBr)cc1)C(N)=O`, for which the inhibition was inactive: -13.9%.

Consider `CC(=O)c1ccc(N2CC2c2ccncc2)cc1` (stereo unspecified), for which the inhibition was inactive: 8.95%.

`CC(=O)Nc1ccc(Oc2c([N+](=O)[O-])cc([N+](=O)[O-])cc2[N+](=O)[O-])cc1`: the inhibition was inactive: 9.15%.

For `CC(=O)Nc1ccc([As](=O)(O)O)c(O)c1`, the inhibition was inactive: 14.1%.

`CCOc1ccc(C2=NCC(CBr)S2)cc1` (stereo unspecified): the inhibition was inactive: 5.81%.

Consider `O=P1(Nc2nc3ccc(Cl)cc3s2)COc2ccccc2O1` (stereo unspecified), for which the inhibition is inactive: 7.97%.

As to `CC(C)(C)C(=O)NC(Sc1ccccc1)C(Cl)(Cl)Cl` (stereo unspecified), the inhibition was inactive: 5.73%.

For `CCc1cc(O)c([N+](=O)[O-])c(C)c1[N+](=O)[O-]`, the inhibition is inactive: 8.49%.

In the case of `O=C(NC(Sc1ccncn1)C(Cl)(Cl)Cl)c1ccccc1` (stereo unspecified), the inhibition was inactive: -1.58%.

Consider `Oc1ccccc1CNc1ccccn1`, for which the inhibition was inactive: 4.67%.

In the case of `CC(C)CC(=O)NC(Sc1ccc(Cl)cc1)C(Cl)(Cl)Cl` (stereo unspecified), the inhibition was inactive: 5.72%.

In the case of `Nc1cc(N)c2nonc2c1[N+](=O)[O-]`, the inhibition is inactive: 16.5%.

Regarding `Cc1ccc(N/C(=N/P(=O)(N2CCOCC2)N2CCOCC2)N2CCOCC2)cc1`, the inhibition is inactive: 0.66%.

`CN(C(=O)Cc1ccc(Cl)c(Cl)c1)[C@H]1CCCC[C@H]1N1CCCC1`: the inhibition was inactive: -11%.

Consider `NC(=O)c1cc([N+](=O)[O-])cc([N+](=O)[O-])c1N`, for which the inhibition is inactive: -12.4%.

Regarding `Clc1ccc(Cl)c(NC2=NCC(CBr)S2)c1` (stereo unspecified), the inhibition is inactive: -5.74%.

Take `CN1CCCC(OC(=O)C(c2ccccc2)c2ccccc2)C1` (stereo unspecified): the inhibition is inactive: -0.16%.

`Cc1ccc(OP(=O)(Nc2nccs2)Oc2ccc(C)cc2)cc1`: the inhibition was inactive: 15.8%.

Consider `COc1ccccc1OP(=O)(Nc1ccc(C)cn1)Oc1ccccc1OC`, for which the inhibition was inactive: -1.8%.

With `Nc1cccc2ccc([As](=O)(O)O)cc12`, the inhibition was inactive: 8.86%.

Turning to `CCN(N=Nc1nonc1N)c1nonc1N`, the inhibition is inactive: 15.3%.

In the case of `CN(C(=O)Cc1ccccc1)C1CC[C@@]2(CCCO2)C[C@@H]1N1CCCC1` (stereo partly specified), the inhibition was inactive: 6.46%.

With `CN(C)P(=O)(N(C)C)n1c(Nc2ccccc2)nnc1-c1ccccc1`, the inhibition was inactive: -8.33%.

As for `O=P(Nc1nc2ccc(Cl)cc2s1)(c1ccccc1)c1ccccc1`, the inhibition was inactive: -3.26%.

As for `CCCC1OP(N)(=O)OCC1CC` (stereo unspecified), the inhibition was inactive: -4.54%.

With `O=C(O)c1ccccc1[As](=O)(O)O`, the inhibition was inactive: 0.3%.

As for `CC(=O)Nc1ccc([As](=O)(O)O)cc1`, the inhibition was inactive: -12.1%.

Take `CCn1c(=O)n(C2CCN(CC3CCCCCCC3)C[C@H]2CO)c2ccccc21` (stereo partly specified): the inhibition is inactive: 8.55%.

Turning to `Cc1ccc(NP(=O)(Oc2ccccc2F)Oc2ccccc2F)nc1`, the inhibition was inactive: 4.8%.

As for `CN(C(=O)Cc1ccc(Cl)c(Cl)c1)[C@H]1CCCC[C@@H]1N1CCCC1`, the inhibition is inactive: 2.93%.

For the compound `CCOP(=O)(Nc1ccccc1)OCC`, the inhibition is inactive: 14.5%.

As to `Cc1cc(SC(NC(=O)c2ccc(F)cc2)C(Cl)(Cl)Cl)ncn1` (stereo unspecified), the inhibition is inactive: 9.46%.

Regarding `O=[N+]([O-])c1ncn(CCn2ncnc2[N+](=O)[O-])n1`, the inhibition is inactive: 17.5%.

In the case of `CC(C)(C)C(=O)NC(Sc1ccncn1)C(Cl)(Cl)Cl` (stereo unspecified), the inhibition is inactive: -6.4%.

In the case of `O=C(O)CNc1ccc([As](=O)(O)O)cc1`, the inhibition is inactive: 10.2%.

Take `O=[N+]([O-])c1cccc(NC2=NCC(CBr)S2)c1` (stereo unspecified): the inhibition is inactive: 0.43%.

On to `COC(=O)C1(C)COP(=O)(Nc2ccccc2)OC1` (stereo unspecified), for which the inhibition is inactive: 20.8%.

For `O=P1(N(CCCl)CCCl)OCCCS1` (stereo unspecified), the inhibition was inactive: 6.49%.

Consider `O=C(Nc1cc([As](=O)(O)O)ccc1O)c1ccccc1`, for which the inhibition is inactive: -6.13%.

Take `CCN(/C(=N/P(=O)(N1CCOCC1)N1CCOCC1)N1CCOCC1)c1ccc(OC)cc1`: the inhibition was inactive: 6.97%.

In the case of `C[N+]1=C2C=CC=CC=C2SC12C([N+](=O)[O-])=CC([N+](=O)[O-])=C[C-]2[N+](=O)[O-]` (stereo unspecified), the inhibition was active: 86.5%.

Consider `Nc1ccc([As](=O)(O)c2ccc(N)cc2)cc1`, for which the inhibition is inactive: -4.23%.

`c1cc(-c2nn[nH]n2)ccc1-c1nn[nH]n1`: the inhibition was inactive: -3.16%.

For `CC1CCN(C(=O)Oc2c(Cl)cc(Cl)c3cccnc23)CC1`, the inhibition is inactive: 2.81%.

Turning to `CN(C)C(=O)OCCc1n(C)cc[n+]1C`, the inhibition was inactive: 3.59%.

Regarding `CC(C)=N/N=C(\N)N[N+](=O)[O-]`, the inhibition is inactive: 2.98%.

Turning to `CC(C)c1nc(Nc2ccccc2)n(P(=O)(N(C)C)N(C)C)n1`, the inhibition is inactive: -9.49%.

As for `COc1ccc(C2=NCC(CBr)S2)cc1` (stereo unspecified), the inhibition is inactive: 7.2%.

Regarding `CCc1nc2c(n1)c1c(non1O)c1c2no[n+]1[O-]`, the inhibition was inactive: -2.93%.

With `O=[N+]([O-])c1cc([N+](=O)[O-])c(CCNc2ccccc2)c([N+](=O)[O-])c1`, the inhibition was inactive: 14.2%.

As for `Cc1ccc(NP(=O)(Oc2ccccc2)Oc2ccccc2)nc1`, the inhibition was inactive: -11.1%.

Turning to `O=[N+]([O-])c1cccc2n[nH]nc12`, the inhibition was inactive: 3.67%.

With `CC(=O)N1C2C3N(C(C)=O)C1C1N(C(C)=O)C(C(N1C(C)=O)N3C(C)=O)N2C(C)=O`, the inhibition is inactive: -8.21%.

Consider `O=C(OC1CN2CCC1CC2)c1cccc([N+](=O)[O-])c1` (stereo unspecified), for which the inhibition is inactive: -0.3%.

For the compound `CCOC(=O)c1ccc(NC(=O)C(C)(CCl)SC)cc1` (stereo unspecified), the inhibition is inactive: -8.32%.

As to `CCC(C)N(CC(C)C)C(=S)SC(NC(C)=O)C(Cl)(Cl)Cl` (stereo unspecified), the inhibition is inactive: 13.2%.

For the compound `COC(=O)C1(C)COP(=O)(N2CCCC2)OC1` (stereo unspecified), the inhibition was inactive: 4.76%.

`COP1(=S)c2c(C)nn(CCC#N)c2N=C(c2ccc(F)cc2)N1C` (stereo unspecified): the inhibition was inactive: -5.38%.

Turning to `O=C(O)C(=O)c1ccc(N(CCCl)CCCl)cc1`, the inhibition was inactive: -5.65%.

For the compound `O=C(Nc1ccncc1[N+](=O)[O-])c1ccc([N+](=O)[O-])cc1[N+](=O)[O-]`, the inhibition was inactive: 31.4%.

Turning to `O=C(COc1ccccc1)OC1CN2CCC1CC2` (stereo unspecified), the inhibition is inactive: -5.74%.

In the case of `CCOC(=O)Nc1cccc([As](=O)(O)O)c1`, the inhibition was inactive: -6.3%.

With `O=P(Nc1ccccn1)(c1cccc2ccccc12)c1cccc2ccccc12`, the inhibition is inactive: -25.1%.

As for `Cc1cc(SC(NC=O)C(Cl)(Cl)Cl)ncn1` (stereo unspecified), the inhibition is inactive: -1.67%.

Take `O=[N+]([O-])c1ccc(Nc2ccc(Oc3ccc([N+](=O)[O-])cc3[N+](=O)[O-])cc2)c([N+](=O)[O-])c1`: the inhibition is inactive: 20%.

As to `CCOC(=O)Nc1ccc([As](=O)(O)O)c(O)c1`, the inhibition was inactive: -2.25%.

For `O=C(O)C(O)c1ccc(N(CCCl)CCCl)cc1` (stereo unspecified), the inhibition is inactive: -12.1%.

On to `CC1CCNP(=O)(N(CCCl)CCCl)O1` (stereo unspecified), for which the inhibition is inactive: -17.6%.

`COP(=O)(OC)N1CC1c1ccccc1` (stereo unspecified): the inhibition was inactive: -4.21%.

As for `Cc1cc(SC(NC(=O)c2ccccc2)C(Cl)(Cl)Cl)nc(C(C)C)n1` (stereo unspecified), the inhibition was inactive: 12.2%.

Take `CCCCOc1ccc(C(=O)NCC2(N3CCCCC3)CCCCC2)cc1OC`: the inhibition is inactive: -10.2%.

For `ClCCSc1nnc(-c2cccnc2)o1`, the inhibition was inactive: -31.1%.

For the compound `CC(C)c1ccc(OP(=O)(Nc2ccccn2)Oc2ccccc2F)cc1` (stereo unspecified), the inhibition is inactive: 11%.

Regarding `COC(=O)C1(C)COP(=O)(N2CCCCCC2)OC1` (stereo unspecified), the inhibition was inactive: -4.83%.

As for `O=C(OC1CN2CCC1CC2)c1cccc2[nH]cnc12` (stereo unspecified), the inhibition was inactive: -4.7%.

Turning to `CCN(CC)C(=S)SC(NC=O)C(Cl)(Cl)Cl` (stereo unspecified), the inhibition was inactive: -0.03%.

Consider `CC(C)NC(=O)NP(=O)(Oc1ccccc1)Oc1ccccc1`, for which the inhibition was inactive: -8.74%.

`COc1cc(C(=O)NCC2(N3CCOCC3)CCCCC2)ccc1OCC(C)C`: the inhibition was inactive: 6.3%.

Consider `O=[N+]([O-])c1ccc(-c2cc([N+](=O)[O-])c(O)c([N+](=O)[O-])c2)cc1`, for which the inhibition is inactive: 4.1%.

Take `C[As](=O)(O)c1cccc(C(=O)O)c1`: the inhibition was inactive: -5.41%.

`O=[As](O)(c1ccc(O)cc1)c1ccccc1O`: the inhibition is inactive: 8.12%.

Take `[N-]=[N+]=NC1CCCCC1NC(=O)c1cc([N+](=O)[O-])cc([N+](=O)[O-])c1` (stereo unspecified): the inhibition is inactive: -6.44%.

For the compound `Cc1ccc(OP(=O)(Nc2ccc([N+](=O)[O-])cn2)Oc2ccc(C)cc2)cc1`, the inhibition was inactive: 17.2%.

In the case of `Cc1ccc2nc3c(c(C)c2c1)CC(C(Cl)Cl)S3` (stereo unspecified), the inhibition is inactive: -9.71%.

In the case of `O=[N+]([O-])c1cc(Oc2ccc([N+](=O)[O-])cc2C(F)(F)F)cc([N+](=O)[O-])c1`, the inhibition was inactive: 22.3%.

Take `COc1ccc(N/C(=N/P(=O)(N2CCOCC2)N2CCOCC2)N2CCOCC2)cc1`: the inhibition was inactive: 1.27%.

Turning to `Cc1c2c(nc3ccccc13)SC(C(Cl)Cl)C2` (stereo unspecified), the inhibition was inactive: -0.92%.

As for `Cc1cc(=O)[nH]c(N[N+](=O)[O-])n1`, the inhibition was inactive: 12.8%.

Regarding `O=C(OC1CN2CCC1CC2)C12CC3CC(CC(C3)C1)C2` (stereo unspecified), the inhibition was inactive: -20%.

Turning to `O=P1(N(CCCl)CCCl)Nc2ccccc2N1`, the inhibition is inactive: -37.5%.

`O=P1(N(CCCl)CCCl)OCCCN1CCCl` (stereo unspecified): the inhibition is inactive: -0.05%.

Consider `COc1cc(I)ccc1[As](=O)(O)O`, for which the inhibition is inactive: 10.8%.

As for `COc1ccc2nc(NP(=O)(c3ccccc3)c3ccccc3)sc2c1`, the inhibition is inactive: -0.54%.

In the case of `Nc1cccc2c([As](=O)(O)O)cccc12`, the inhibition is inactive: -2.48%.

In the case of `Cc1ccc(NCCc2c([N+](=O)[O-])cc([N+](=O)[O-])cc2[N+](=O)[O-])cc1`, the inhibition was inactive: 7.98%.
